Experimental data as given in US20220305051A1 (priority 2019, published 2022).

Tests used:
[1] = tested on: C57bl/6 mice exposed to Cl2 gas; experiment: Survival of mice after Cl2 gas exposure, post-exposure IM nitrite
[2] = tested on: exposure to chlorine, bromine and/or phosgene gas; experiment: Animal models of chlorine, bromine and/or phosgene gas poisoning, post-exposure nitrite (summary); details: post-exposure intramuscular sodium nitrite, mice, rats and rabbits

In the case of `O=NO` [nitrite, sodium nitrite], the Acute survival ([1]; IM nitrite given to mice post-Cl2 gas exposure) is reported as “improves acute survival”, the “Time post-exposure with greatest survival benefit” value ([1]; IM nitrite post-Cl2 gas exposure) is reported as “up to 18 hours” and the 24 hour survival ([1]; female mice, Cl2 600 ppm 45 minutes, nitrite 10 mg/Kg IM 30 minutes post-exposure) is reported as “only the highest dose was protective”. For the same compound, the 24 hour survival ([1]; female mice, Cl2 600 ppm 45 minutes, nitrite 20 mg/Kg IM 30 minutes post-exposure) was “protective”, the “Survival (Kaplan-Meier)” value ([1]; male C57bl/6 mice, Cl2 600 ppm 45 minutes, nitrite IM at 60 minutes post-exposure, vs saline) was “Significantly higher survival” and the 24 hour survival ([1]; male mice, Cl2 600 ppm 45 minutes, nitrite 10 mg/Kg IM 30 minutes post-exposure) was “improved survival”. The 24 hour survival ([1]; male mice, Cl2 600 ppm 45 minutes, nitrite 20 mg/Kg IM 30 minutes post-exposure) was “improved survival” and the “Acute lung injury and survival” value [2] was “significant decreases in acute lung injury and improved survival”.
